In patent publication US20160053026A1, “METHODS FOR TREATING INFECTION BY HPV” (STC.UNM, priority 2011, published 2016):

What was measured:
EGFR = assay: Immunoblot for p-EGFR after EGF stimulation in HPV[+] and HPV[−] keratinocytes; format: cell-based, human; conditions: cetuximab 100 μg/mL or PD98059 25 μM; 10 ng/mL EGF in SFM, 5 or 15 minutes; SG3 (HPV16[+]) and NIKS (HPV[−]) cells
Method: (§1) FIG. 5. Response of Erb RTK pathway signaling in HPV[−] or HPV[+] human keratinocytes following inhibition of EGFR with cetuximab and MEK with PD98059. Cells were serum starved for 8 hours prior to mock (M) treatment, treatment with diluent in SFM and 10 ng/ml EGF (Ø), cetuximab (C, 100 μg/mL) or MEK inhibitor PD98059 (P, 25 μM) before and during exposure to 10 ng/mL EGF in SFM for indicated times. Mock=No EGF. Cell lysates were harvested and subjected to SDS-PAGE and immunoblot for p-EGFR, total EGFR, p-ERK1/2 and GAPDH, a loading control.
(§2) Cetuximab's effect was recently assessed on MAPK activation and proliferation in two cervical cancer cell lines long in culture, but with no investigation of HPV involvement (Meira et al., 2009, Br J Cancer 101:782-791). Our approach was similar, investigating differences between HPV16 positive (HPV[+]) and HPV negative (HPV[−]) cell lines, however, and investigating the effects of additional EGFR signaling inhibitors. Cells were grown in monolayer cultures and exposed to clinically relevant doses of EGF (0.1 ng/ml or 10 ng/ml, 5-15 minutes), cetuximab (100 μg/ml, 4 hours), PD98059 (25 μM, 1 hour). Western blot was performed (FIG. 5) and cell viability determined with MTT assay and clonogenic assays performed as described (FIG. 7) (Meira et al., 2009, Euro J Cancer 45:1265-1273). […]

HPV16 viral genome = assay: qPCR of HPV16 LCR (viral genome number) in HPV[+] HFK cells; format: cell-based; conditions: cetuximab 100 μg/mL or PD98059 25 μM, two to six days after treatment
Method: FIG. 9. Response of HPV16 viral genome number to EGFR or MAPK Inhibitors. HPV[+] HFK cells incubated in fibroblast conditioned media containing 100 μg/mL Cetuximab (M=Media only) or 25 μM PD98059 (Ø=Media+DMSO). Total DNA harvested at indicated time points was subjected to qPCR for HPV16 LCR quantification. […] Data are the result of 2 separate experiments. (* p<0.05, ** p<0.01).
HPV[+] HFK cells were incubated in fibroblast conditioned media containing 100 μg/mL cetuximab (M=Media only) or 25 μM PD98059 (Ø=Media+DMSO). Total DNA harvested at two days, three days, four days, five days, or six days after treatment was subjected to qPCR (SYBR Green I kit on the BioRad iCycler) for HPV16 LCR quantification. Statistically significant decreases in HPV16 genome levels are indicated. Total RNAs were extracted from cells using TRIzol (Invitrogen), and processed with the
(§3) TURBO DNA-free Kit (Ambion) to remove co-purifying viral and cellular DNA. Reverse transcription (RT) of total RNAs (0.2-0.5 μg) was performed using random hexamer primers and ABI reagents (Applied Biosystems). For quantitative PCR (qPCR), 2 μl of each cDNA or total DNA was analyzed in triplicate using the SYBR Green I kit on the iCycler (Bio-Rad Laboratories, Inc., Hercules, Calif.).

[1] = tested on: HPV[+] human keratinocytes; assay: MTT cell viability assay, HPV[+] cells; format: cell-based; conditions: cetuximab 50, 100, 200 μg/mL; PD98059 12.5, 25, 50 μM; MTT after 72 hours (seven days)
Method: (§4) FIG. 7. Effect of Erb and MAPK inhibitors on cells survival in HPV[−] and HPV[+] human keratinocytes. Cells were grown for seven days in fibroblast conditioned media containing 0 μg/mL [M], 50 μg/mL, 100 μg/mL, or 200 μg/mL Cetuximab or 12.5 μM, 25 μM, or 50 μM PD98059as indicated by the wedges. The boxes indicate the same concentrations used in the FIG. 3 and FIG. 5. MTT assays were performed to assess cell viability. Error bars represent SEM (N=3).
(§5) Cetuximab's effect was recently assessed on MAPK activation and proliferation in two cervical cancer cell lines long in culture, but with no investigation of HPV involvement (Meira et al., 2009, Br J Cancer 101:782-791). Our approach was similar, investigating differences between HPV16 positive (HPV[+]) and HPV negative (HPV[−]) cell lines, however, and investigating the effects of additional EGFR signaling inhibitors. […] Western blot was performed (FIG. 5) and cell viability determined with MTT assay and clonogenic assays performed as described (FIG. 7) (Meira et al., 2009, Euro J Cancer 45:1265-1273).
(§6) The proliferative capacity of MAPK inhibitor-treated cells compared to untreated cells was measured by MTT assay after 72 hours to determine the surviving fractions (FIG. 7). […]

[2] = tested on: HPV[−] human keratinocytes; assay: MTT cell viability assay, HPV[−] cells; format: cell-based; conditions: cetuximab 50, 100, 200 μg/mL; PD98059 12.5, 25, 50 μM; MTT after 72 hours (seven days)
Method: as §4, §5, §6

HPV16 E1^E4 early mRNA = assay: RT-qPCR of HPV16 E1^E4 early mRNA in HPV[+] HFK cells; format: cell-based; conditions: cetuximab 100 μg/mL or PD98059 25 μM, 24-96 hours
Method: FIG. 8. HPV16 E1̂E4 early mRNA levels in response to treatment with EGFR or MAPK inhibitors. HPV[+] HFK cells incubated in fibroblast conditioned media containing 100 μg/mL Cetuximab or 25 μM PD98059. Total RNA harvested at indicated time points was subjected to RT and then to qPCR for β-actin and HPV16 E1̂E4 quantification. […] Data are the result of two separate experiments.
Reduced HPV expression can restore functional levels of p53 and pRb. We quantified HPV early mRNAs E1̂E4 /E5 using RT-qPCR following the exposure of the cell lines to the active doses of EGF, cetuximab, and PD98059 used in FIGS. 6 and FIG. 7.
HPV[+] HFK cells were incubated in fibroblast conditioned media containing 100 μg/mL cetuximab or 25 μM PD98059. Total RNA harvested at 24 hours, 48 hours, 72 hours, or 96 hours was subjected to RT and then to qPCR for β-actin and HPV16 E1̂E4 quantification. Statistically significant decreases in HPV16 E1̂E4 transcript levels in response to treatments are indicated.
as §3

p-ERK1/2 = assay: Immunoblot for p-ERK1/2 (MAPK signaling) after EGF stimulation in HPV[+] and HPV[−] keratinocytes; format: cell-based, human; conditions: cetuximab 100 μg/mL or PD98059 25 μM; 10 ng/mL EGF in SFM, 5 or 15 minutes; SG3 (HPV16[+]) and NIKS (HPV[−]) cells
Method: as §1, §2

cetuximab
EGFR activation (p-EGFR) (EGFR): decreased EGFR activation
HPV16 genome levels (LCR qPCR) compared to mock treated (HPV16 viral genome): statistically significant decrease in HPV16 genome levels
viability of HPV[+] cells (MTT) [1]: dose-dependent decrease in viability
viability of HPV[−] cells (MTT) [2]: dose-dependent decrease in viability
HPV16 E1^E4 transcript levels (HPV16 E1^E4 early mRNA): decrease is statistically significant after 48 hours of treatment
downstream / MAPK signaling (p-ERK1/2) (p-ERK1/2): decreased downstream signaling
